The values below come from patent publication US10172863B2, “Purine derivatives useful as HSP90 inhibitors” (Sloan-Kettering Institute for Cancer Research, priority 2009, dated 2019).

The subject of one experiment is JNPL3 brain Hsp90. The experiment in a line: EC50 for Hsp90 binding in JNPL3 brain cell lysate. The conditions noted are these: read-out: EC50, binding to JNPL3 brain Hsp90.
A further experiment deals with SKBr3 cell Hsp90. The experiment in a line: EC50 for Hsp90 binding in SKBr3 cell lysate. The conditions noted are these: read-out: EC50, binding to SKBr3 cell Hsp90.

Some compounds may have been tested in ways that are not shown here. Some results are limits rather than exact numbers.

For `CC(C)CNCCn1c(Cc2cc3c(cc2-c2ccco2)OCO3)nc2c(N)nc(F)nc21`, the EC50 (as a rule, the midpoint of the concentration-response curve) with JNPL3 brain Hsp90 was found to be 0.0039 µM; with SKBr3 cell Hsp90, 0.0052 µM.

For the molecule `CC(C)CNCCn1c(Cc2cc3c(cc2I)CCO3)nc2c(N)nc(F)nc21`, the 50% effective concentration (EC50) in the experiment on JNPL3 brain Hsp90 came out at 0.0173 µM.

With `Cc1ccc(-c2cc3c(cc2Cc2nc4c(N)nc(F)nc4n2CCNCC(C)C)OCO3)o1`, the half-maximal effective concentration (EC50) in the experiment on JNPL3 brain Hsp90 stood at 0.006 µM; in the experiment with SKBr3 cell Hsp90, 0.012 µM.

With `CC(C)CNCCn1c(Cc2cc3c(cc2-c2cn[nH]c2)OCO3)nc2c(N)nc(F)nc21`, the EC50 in the experiment on SKBr3 cell Hsp90 was 0.128 µM.

Take `CC(C)CNCCn1c(Cc2cc3c(cc2-c2ccc(C=O)o2)OCO3)nc2c(N)nc(F)nc21`: the EC50 in the experiment with JNPL3 brain Hsp90 worked out at 0.082 µM; in the experiment with SKBr3 cell Hsp90, 0.142 µM.

Regarding `CC(C)CNCCn1c(Cc2cc3c(cc2-c2ncco2)OCO3)nc2c(N)nc(F)nc21`, in the experiment on SKBr3 cell Hsp90, the 50% effective concentration (EC50) came out at 0.0114 µM.

On to `CC(C)CNCCn1c(Cc2cc3c(cc2-c2cc[nH]n2)OCCO3)nc2c(N)nc(F)nc21`, for which the EC50 in the experiment with SKBr3 cell Hsp90 turned out to be 0.0077 µM.

For the molecule `CC(C)CNCCn1c(Cc2cc3c(cc2-c2ccnn2C)OCO3)nc2c(N)nc(F)nc21`, the concentration for a half-maximal effect (EC50) in the experiment on JNPL3 brain Hsp90 and in the experiment on SKBr3 cell Hsp90 was above 0.3 µM in each case.

As for `CC(C)CNCCn1c(Cc2cc3c(cc2I)OCCO3)nc2c(N)nc(F)nc21`, the EC50 in the experiment on SKBr3 cell Hsp90 is 0.0094 µM.

On to `CC(C)CNCCn1c(Cc2cc3c(cc2-c2ccoc2)OCO3)nc2c(N)nc(F)nc21`, for which the concentration giving a half-maximal response (EC50) with JNPL3 brain Hsp90 amounted to 0.014 µM; in the experiment with SKBr3 cell Hsp90, 0.026 µM.

With `CC(C)CNCCn1c(Cc2cc3c(cc2-c2ccco2)OCCO3)nc2c(N)nc(F)nc21`, the EC50 in the experiment on SKBr3 cell Hsp90 was found to be 0.0053 µM.

Consider `CC(C)CNCCn1c(Cc2cc3c(cc2-c2cccs2)OCO3)nc2c(N)nc(F)nc21`, for which the figures for the EC50 with JNPL3 brain Hsp90 and in the experiment with SKBr3 cell Hsp90 were 0.024 µM and 0.059 µM, respectively.

Regarding `CC(C)CNCCn1c(Cc2cc3c(cc2-c2nccs2)OCO3)nc2c(N)nc(F)nc21`, the concentration for a half-maximal effect (EC50) with SKBr3 cell Hsp90 was found to be 0.0197 µM.

As to `CC(C)(C)NCCn1c(Cc2cc3c(cc2I)OCCO3)nc2c(N)nc(F)nc21`, the EC50 in the experiment on JNPL3 brain Hsp90 was 0.0451 µM.

`CC(C)CNCCn1c(Cc2cc3c(cc2-c2cc[nH]n2)OCO3)nc2c(N)nc(F)nc21`: the values for the EC50 in the experiment on JNPL3 brain Hsp90 and with SKBr3 cell Hsp90 were 0.0026 µM and 0.0072 µM, respectively.

In the case of `CC(C)CNCCn1c(Cc2cc3c(cc2-c2cc[nH]c2)OCO3)nc2c(N)nc(F)nc21`, the EC50 amounted to 0.023 µM with JNPL3 brain Hsp90 and 0.047 µM with SKBr3 cell Hsp90.

Turning to `CC(C)(C)CNCCn1c(Cc2cc3c(cc2I)CCO3)nc2c(N)nc(F)nc21`, the 50% effective concentration (EC50) with JNPL3 brain Hsp90 worked out at 0.008 µM.

In the case of `C#Cc1cc2c(cc1Cc1nc3c(N)nc(F)nc3n1CCNCC(C)C)OCO2`, the EC50 in the experiment on JNPL3 brain Hsp90 was below 0.2 µM.

For the molecule `CC(C)CNCCn1c(Cc2cc3c(cc2CC#N)OCO3)nc2c(N)nc(F)nc21`, the 50% effective concentration (EC50) in the experiment with JNPL3 brain Hsp90 was 0.046 µM; with SKBr3 cell Hsp90, 0.093 µM.

On to `CC(C)CNCCn1c(Cc2cc3c(cc2-c2ccc[nH]2)OCO3)nc2c(N)nc(F)nc21`, for which the values for the EC50 with JNPL3 brain Hsp90 and with SKBr3 cell Hsp90 were 0.089 µM and 0.121 µM, respectively.

For the molecule `CC(C)CNCCn1c(Cc2cc3c(cc2-c2cnoc2)OCO3)nc2c(N)nc(F)nc21`, the concentration giving a half-maximal response (EC50) in the experiment on JNPL3 brain Hsp90 is 0.153 µM; in the experiment on SKBr3 cell Hsp90 it was 0.185 µM.
